Data published in ChEMBL document CHEMBL3351363 (J Med Chem, 2014).

By UniProt entry, the sequences of proteins in these tests, tags left out.
UniProt P08173, whole entry: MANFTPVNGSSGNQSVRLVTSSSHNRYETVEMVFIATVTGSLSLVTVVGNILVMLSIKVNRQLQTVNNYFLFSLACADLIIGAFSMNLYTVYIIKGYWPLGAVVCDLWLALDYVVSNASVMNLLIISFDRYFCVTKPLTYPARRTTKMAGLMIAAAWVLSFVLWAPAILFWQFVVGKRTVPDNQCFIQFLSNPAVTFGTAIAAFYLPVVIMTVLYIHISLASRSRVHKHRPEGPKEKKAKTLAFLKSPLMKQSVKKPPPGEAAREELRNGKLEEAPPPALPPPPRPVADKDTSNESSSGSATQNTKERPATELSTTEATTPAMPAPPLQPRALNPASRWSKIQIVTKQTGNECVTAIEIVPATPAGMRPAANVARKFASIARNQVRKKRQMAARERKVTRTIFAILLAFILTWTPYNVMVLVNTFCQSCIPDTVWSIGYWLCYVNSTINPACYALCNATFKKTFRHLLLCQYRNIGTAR

Tests used:
[1] = target: T1, Muscarinic acetylcholine receptor M4 (Homo sapiens, UniProt P08173)
[2] = target: T1, Muscarinic acetylcholine receptor M4; experiment: Antagonist activity at human M4 receptor expressed in HEK293T cells assessed as inhibition of carbachol-induced response by BRET based Gq protein engagement assay; type: cell-based, HEK-293T
[3] = target: T1, Muscarinic acetylcholine receptor M4; experiment: Antagonist activity at human M4 receptor expressed in HEK293T cells assessed as inhibition of carbachol-induced response by beta-arrestin engagement assay; type: cell-based, HEK-293T

CN1[C@@H]2C[C@@H](OC(=O)[C@H](CO)c3ccccc3)C[C@H]1[C@@H]1O[C@@H]12 [SCOPOLAMINE]
IC50 [1]: 3.8 nM | IC50 [2]: 3.8 nM | IC50 [3]: 1.29 nM
